Assay: Calcite dissolving capacity of breaker systems
Assay type: physicochemical
Details: 2.5 g BARACARB 5 in 50 mL test fluid, one hour

Cl.NC(N)=O [Synthetic acid (HCl salt of urea), HCl salt of urea]
% Carbonate Complexed or Dissolved: 35.2%
Final Weight of BARACARB 5, g: 1.62 g

Source: US8881823B2, “Environmentally friendly low temperature breaker systems and related methods” (Halliburton Energy Services, Inc., priority 2011, dated 2014)
